# Experimental data from patent US20130011870A1, “Method For Assaying Diseases Characterized By Dyslipidemia” (priority 2010, published 2013).
# System: serine palmitoyltransferase (SPT) in SPTLC3 overexpressing HEK293 cells
# Test: In vitro SPT activity with various acyl-CoA substrates (Example 1, FIG. 3)
# Type: biochemical
# Settings: acyl-CoA 50 μM; activity with palmitoyl-CoA defined as 100%
# Procedure: FIG. 3 In vitro SPT activity with various acyl-CoA substrates (C12-CoA, C14-CoA, C16-CoA and C18:1-CoA) in control, SPTLC1, SPTLC2 and SPTLC3 overexpressing HEK293 cells. […] (For comparison the activity with palmitoyl-CoA is defined as 100%.)
# All acyl-CoAs were used at the same concentration (50 μM).
smiles,measurement,value
CCCCCCCCCCCCCC(=O)SCCNC(=O)CCNC(=O)[C@H](O)C(C)(C)COP(=O)(O)OP(=O)(O)OC[C@H]1O[C@@H](n2cnc3c(N)ncnc32)[C@H](O)[C@@H]1OP(=O)(O)O [myristoyl-CoA],"SPT activity with the acyl-CoA substrate in SPTLC3 overexpressing cells compared with control, SPTLC1 and SPTLC2 cells",significantly higher activity
